These results are taken from ChEMBL document CHEMBL5360658, “Discovery of MK-8768, a Potent and Selective mGluR2 Negative Allosteric Modulator” (ACS Med Chem Lett, 2023).

Protein sequences, listed by entry. Tags and fused reporters are not part of them. Lines headed by an entry give the natural chain unless they say otherwise; changes in a name come on top.
UniProt P43245, whole entry: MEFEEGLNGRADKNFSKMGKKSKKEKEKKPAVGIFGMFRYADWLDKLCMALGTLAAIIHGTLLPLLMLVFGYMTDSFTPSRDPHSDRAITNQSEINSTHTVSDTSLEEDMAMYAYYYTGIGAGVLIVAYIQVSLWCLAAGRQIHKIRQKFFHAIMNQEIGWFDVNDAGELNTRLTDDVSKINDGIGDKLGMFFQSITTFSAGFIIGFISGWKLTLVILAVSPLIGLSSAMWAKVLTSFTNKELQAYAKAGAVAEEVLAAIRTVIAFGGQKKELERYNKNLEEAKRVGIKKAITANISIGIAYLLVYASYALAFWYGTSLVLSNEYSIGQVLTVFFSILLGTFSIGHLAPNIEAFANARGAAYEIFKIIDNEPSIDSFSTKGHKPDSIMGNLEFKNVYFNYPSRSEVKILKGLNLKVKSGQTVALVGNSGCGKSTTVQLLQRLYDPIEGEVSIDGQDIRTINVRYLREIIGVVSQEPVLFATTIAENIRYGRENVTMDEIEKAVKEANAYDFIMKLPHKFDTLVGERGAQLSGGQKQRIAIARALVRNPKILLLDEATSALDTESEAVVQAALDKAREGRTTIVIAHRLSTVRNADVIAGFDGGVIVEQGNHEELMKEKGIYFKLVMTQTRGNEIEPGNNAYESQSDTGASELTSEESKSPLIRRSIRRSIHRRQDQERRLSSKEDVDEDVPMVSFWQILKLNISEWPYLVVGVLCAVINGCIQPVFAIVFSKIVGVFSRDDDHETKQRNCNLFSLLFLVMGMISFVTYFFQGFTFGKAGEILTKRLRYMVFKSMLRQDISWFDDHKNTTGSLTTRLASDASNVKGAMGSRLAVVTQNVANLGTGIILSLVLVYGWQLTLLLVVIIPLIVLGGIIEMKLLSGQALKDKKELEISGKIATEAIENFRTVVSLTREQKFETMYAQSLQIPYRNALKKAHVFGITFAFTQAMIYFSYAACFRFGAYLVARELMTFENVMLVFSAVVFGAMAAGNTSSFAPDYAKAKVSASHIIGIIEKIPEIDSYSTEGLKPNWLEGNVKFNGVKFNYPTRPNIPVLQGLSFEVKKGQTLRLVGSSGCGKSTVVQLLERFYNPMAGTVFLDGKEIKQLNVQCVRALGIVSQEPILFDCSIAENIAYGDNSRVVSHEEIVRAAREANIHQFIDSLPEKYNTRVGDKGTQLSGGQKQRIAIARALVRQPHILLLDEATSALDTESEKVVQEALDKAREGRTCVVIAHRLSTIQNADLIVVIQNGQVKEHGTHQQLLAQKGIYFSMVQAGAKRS
UniProt Q14416: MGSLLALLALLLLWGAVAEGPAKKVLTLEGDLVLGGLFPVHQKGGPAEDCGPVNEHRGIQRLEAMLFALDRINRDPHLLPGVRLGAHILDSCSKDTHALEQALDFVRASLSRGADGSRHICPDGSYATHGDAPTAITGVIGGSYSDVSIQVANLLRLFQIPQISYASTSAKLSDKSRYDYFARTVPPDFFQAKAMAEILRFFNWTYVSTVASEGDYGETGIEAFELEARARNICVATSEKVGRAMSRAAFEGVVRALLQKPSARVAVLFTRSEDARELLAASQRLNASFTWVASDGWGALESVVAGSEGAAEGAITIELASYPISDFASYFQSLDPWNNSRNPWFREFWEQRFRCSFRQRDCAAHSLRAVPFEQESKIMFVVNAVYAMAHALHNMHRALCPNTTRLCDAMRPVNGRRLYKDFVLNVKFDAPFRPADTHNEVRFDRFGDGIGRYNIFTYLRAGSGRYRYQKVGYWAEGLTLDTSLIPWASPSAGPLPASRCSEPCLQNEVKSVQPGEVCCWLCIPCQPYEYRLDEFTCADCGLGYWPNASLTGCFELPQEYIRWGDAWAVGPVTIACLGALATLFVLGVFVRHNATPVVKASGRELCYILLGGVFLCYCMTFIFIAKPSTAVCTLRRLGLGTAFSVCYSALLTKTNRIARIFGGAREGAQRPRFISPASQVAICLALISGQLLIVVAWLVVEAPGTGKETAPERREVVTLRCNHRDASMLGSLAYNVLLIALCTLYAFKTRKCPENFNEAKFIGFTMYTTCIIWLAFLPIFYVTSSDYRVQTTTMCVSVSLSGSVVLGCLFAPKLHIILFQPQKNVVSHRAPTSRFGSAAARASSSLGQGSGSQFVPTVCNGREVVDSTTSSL

The efflux ratio is the permeability from basolateral to apical divided by that in the opposite direction, in the common usage. For orientation: IC50 means the point on the concentration scale where inhibition reaches its midpoint.

SMILES strings stand for the structures.

One series addresses P-gp (ABCB1) (Rattus norvegicus, UniProt P43245). As to the kind of experiment: Substrate activity at rat P-gp […] in […] LLC-MDR1 cells assessed as efflux ratio of apparent permeability across basolateral to apical over apical to basolateral side. In kind it is ADME, cell-based, LLC-MDR1 cell. The note with it: LLC-PK1.
For `NC(=O)c1cc(-c2ccc(F)cc2)c2ccc(CN3CCOC3=O)cc2n1`, the efflux ratio was 3.3.

Another series has as its target Metabotropic glutamate receptor 2 (Homo sapiens, UniProt Q14416). Nature of the series: Negative allosteric modulation at human mGluR2 receptor stably expressed in DHFR null CHO cells co-expressing Galpha16 assessed as effect on intracellular calcium flux measured after 5 min by Fluo-4AM dye based FLIPR analysis. In kind it is functional, cell-based.
Conditions: not given
A general note: Calcium flux is commonly read through the fluorescence of an indicator in the cells.
`CC1CN(Cc2ccc3c(-c4cnn(C)c4)cc(C(N)=O)nc3c2)CCO1` (racemic): the IC50 was determined as 166 nM.

On to `NC(=O)c1cc(-c2ccc(F)cc2)c2ccc(CN3CCNC(C(F)(F)F)C3)cc2n1` (racemic), for which the IC50 came out at 12 nM.

Take `CC1CN(Cc2ccc3c(-c4ccc(F)cc4)cc(C(N)=O)nc3c2)CCO1` (racemic): the IC50 is 43 nM.

As to `Cn1cc(-c2cc(C(N)=O)nc3cc(CN4CCOC(C(F)(F)F)C4)ccc23)cn1` (racemic), the IC50 was 12 nM.

Turning to `CC1CC=C(c2cc(C(N)=O)nc3cc(CN4C(=O)CCC4=O)ccc23)CC1` (racemic), the half-inhibitory concentration (IC50) amounted to 8 nM.

For `Cn1cc(-c2cc(C(N)=O)nc3cc(CN4CCO[C@@H](C(F)(F)F)C4)ccc23)cn1`, the IC50 worked out at 11 nM.
